The text below walks through data of US9493412B2, “Pyrrolinone carboxamide compounds useful as endothelial lipase inhibitors” (BRISTOL-MYERS SQUIBB COMPANY, priority 2011, dated 2016).

Amino acid sequences for entries named in this document (tags omitted). Residues count along the entry.
UniProt Q9Y5X9, 21-500 limits assumed: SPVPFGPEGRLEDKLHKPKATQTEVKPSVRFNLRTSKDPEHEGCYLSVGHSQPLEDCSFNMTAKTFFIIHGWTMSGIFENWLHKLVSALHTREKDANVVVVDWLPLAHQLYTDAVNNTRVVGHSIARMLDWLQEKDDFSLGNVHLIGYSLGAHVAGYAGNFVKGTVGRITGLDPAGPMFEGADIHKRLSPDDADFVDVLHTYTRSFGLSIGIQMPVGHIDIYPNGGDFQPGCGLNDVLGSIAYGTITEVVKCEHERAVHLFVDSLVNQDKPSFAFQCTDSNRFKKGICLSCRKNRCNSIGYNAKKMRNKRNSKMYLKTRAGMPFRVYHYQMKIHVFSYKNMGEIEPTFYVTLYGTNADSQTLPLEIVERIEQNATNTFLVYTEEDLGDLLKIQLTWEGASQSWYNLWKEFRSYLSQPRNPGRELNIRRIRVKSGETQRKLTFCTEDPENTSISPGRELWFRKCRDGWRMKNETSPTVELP

The IC50 is the concentration that inhibits the measured activity by half.

This assay addresses endothelial lipase (EL) (Homo sapiens (Human), UniProt Q9Y5X9). As to the kind of experiment: Endothelial lipase (EL) enzymatic assay with fluorescent substrate A10070 in DMPG vesicles. Conditions: read-out: HLE_EL_CRC IC50; conditioned media from HT-1080 cells overexpressing endogenous EL; 20 min preincubation at 37° C.

For the compound `O=C(N[C@H]1CC[C@@H](c2ccccc2)CC1)C1=C(O)C(=O)N2CCCCC12` (stereo partly shown), the IC50 amounted to 8.28 µM.
